{
  "source": "paper PMC7180491",
  "about": "“Synthesis and Biological Evaluation of Novel (thio)semicarbazone-Based Benzimidazoles as Antiviral Agents against Human Respiratory Viruses” (Molecules, 2020)",
  "key": {"HEL cells": {"tested_on": "HEL cells", "test": "Cytotoxicity in HEL cells, MTS cell viability assay", "conditions": "read-out: CC50 HEL"}, "Vero cells": {"tested_on": "Vero cells", "test": "Cytotoxicity in Vero cells, MTS cell viability assay", "conditions": "read-out: CC50 Vero"}, "MDCK cells": {"tested_on": "MDCK cells", "test": "Cytotoxicity in MDCK cells, MTS cell viability assay", "conditions": "read-out: CC50 MDCK"}, "Hep-2 cells": {"tested_on": "Hep-2 cells", "test": "Cytotoxicity in Hep-2 cells, MTS cell viability assay", "conditions": "read-out: CC50 Hep-2"}},
  "note": "Some compounds may have been tested in ways that are not shown here.",
  "data": [
    {"smiles": "CCN(CC)CCn1c(Cn2nc3ccccc3n2)nc2cc(C(C)=NN)ccc21", "values": [
      {"measurement": "CC50", "setting": "HEL cells", "result": "> 100", "unit": "µM"},
      {"measurement": "CC50", "setting": "Vero cells", "result": "> 100", "unit": "µM"},
      {"measurement": "CC50", "setting": "MDCK cells", "result": 33, "unit": "µM"},
      {"measurement": "CC50", "setting": "Hep-2 cells", "result": "> 100", "unit": "µM"}
    ]}
  ]
}
